These results are taken from US20090047279A1, “(R)-N-Stereoisomers of 7,8-Saturated-4,5-Epoxy-Morphinanium Analogs” (Progenics Pharmaceuticals, Inc., priority 2006, published 2009).

For this assay, the system named is μ-opioid receptors. As to the kind of experiment: Evaluation of antagonist activity, guinea pig ileum test (responses to DAMGO). Here is the method:
Agonist/antagonist activity at the μ-opioid receptor was determined using the well known guinea pig ileum test. Briefly, an a section of ileum section was placed in a stabilizing solution in a tensed state. Transducers were used to measure changes in tension upon electrical stimulation to the tissue before and after challenge with a potential agonist/antagonist Using a control, constriction inhibition, and constriction inhibition cancellation, may be measured.
The results are expressed as a percent of the control response to DAMGO (decrease in which contract amplitude)

Turning to `C=CCN1CC[C@]23c4c5ccc(O)c4O[C@H]2C(=O)CC[C@@]3(O)[C@H]1C5` [naloxone, reference compound], the “Responses to DAMGO (1.0E−07 M) in the presence of increasing concentrations of the compounds” value by setting is: (1.0E−07 M) −6% of the control response to DAMGO; (5.0E−09 M) 85% of the control response to DAMGO; (20E−08 M) 51% of the control response to DAMGO.
